Antibody variant affinities, Ab-95 light chain, assay 2

Values reported by Engelhart et al. 2022, doi:10.1038/s41597-022-01779-4 (FLAb copy).

The target is the same throughout: PDVDLGDISGINAS, from the HR2 region of SARS-CoV-2 spike.

Parent scFv Ab-95: VH joined to VL by the linker GGGGSGGGGSGGGGS. Changes lie in the light chain CDRs alone.
VH: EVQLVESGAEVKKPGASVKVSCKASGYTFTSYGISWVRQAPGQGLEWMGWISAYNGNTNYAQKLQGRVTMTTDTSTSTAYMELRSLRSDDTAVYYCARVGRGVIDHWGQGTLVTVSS
VL: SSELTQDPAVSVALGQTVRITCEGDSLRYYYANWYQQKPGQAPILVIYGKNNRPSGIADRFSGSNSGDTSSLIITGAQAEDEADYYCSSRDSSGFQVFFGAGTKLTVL

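Phage display of a naive human antibody library on the peptide gave the parent. In library AAYL52, one, two or three CDR residues were substituted; doubles and triples were drawn at random. The assay is AlphaSeq: two haploid yeast populations carry antibody and antigen on their surface. After mating in shaken culture at 30 °C for 16 h, diploids were selected and their barcode pairs sequenced. The ratio of observed to expected reads was calibrated, replicate by replicate, on BCL2-family standards whose Kd was known from biolayer interferometry. Each pool was mated in three replicate cultures.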

Each variant is given by its three light chain CDRs, as the data file delimits them; those of the parent are EGDSLRYYYAN, GKNNRPS, SSRDSSGFQVF. All variants listed here change Q96 of the VL, counted from its first residue. Each Kd is an estimate from the mating assay, the geometric mean of the replicates in which the pair was seen; lower is stronger. Where no diploid with the target was found in any replicate, the entry reads "nd": below detection, most likely a poor binder, though not proof of it. Background: pairings of library AAYL52 with three empty control strains gave a value in 28% of cases (median 8.2 µM, 5th percentile 800 nM). Values in that range, when seen in few replicates, are hard to tell from nonspecific mating. For each scFv, signals with the empty controls are counted beside the result.

* EGDSLRYYYAN / GKNNRPS / SSRDSSHFCFF = 10 µM (2 of 3 replicates; controls 1 of 9)
* EGDSLRQYYAV / GKNNRPS / SSRDSSGFFVF = 3.7 µM (1 of 3 replicates; controls 3 of 9)
* EGDSLRYYYTS / GKNNRPS / SSRDSSGFTVF = 42 µM (1 of 3 replicates; controls 3 of 9)
* ENDSLRYYIAN / GKNNRPS / SSRDSSGFDVF = 18 µM (2 of 3 replicates; controls 7 of 9)
* EGDSLRYYYAN / KKNNRPS / SSFDSSGFTVF = 29 µM (2 of 3 replicates; controls 2 of 9)
* EGDSLRYYYAN / GKNNRPS / SSRDSKGFIVS = 1.9 µM (1 of 3 replicates; controls 1 of 9)
* EGDSLSYYYAN / GKNNRMS / SSRDSSGFTVF = 1.7 µM (3 of 3 replicates; controls 4 of 9)
* EGDSLRYGYAN / RKNNRPS / SSRDSSGFYVF = 650 nM (3 of 3 replicates; controls 4 of 9)
* EGDMLRYYYAN / GKNNTPS / SSRDSSGFFVF = 2.2 µM (1 of 3 replicates; controls 3 of 9)
* YGDSLRYYYAN / GKNNRWS / SSRDSSGFAVF = 10 µM (3 of 3 replicates; controls 3 of 9)
* EGDSLRYYYAN / GKNFRPS / SSQDSSGFEVF = 260 nM (3 of 3 replicates; controls 3 of 9)
* EGDSLRYSYAV / GKNNRPS / SSRDSSGFHVF = 1.3 µM (3 of 3 replicates; controls 2 of 9)
* EGDSLRYYYAN / RKNNRPS / SSRDSSGFTTF = 2.8 µM (1 of 3 replicates; controls 2 of 9)
* EGDSLRYCLAN / GKNNRPS / SSRDSSGFWVF = 110 nM (3 of 3 replicates; controls 1 of 9)
* EGDSLRYDYAN / GKPNRPS / SSRDSSGFTVF = 1.7 µM (1 of 3 replicates; controls 2 of 9)
* EGDSLRYYYAN / GKNNRPS / SHRDSSGDCVF = 490 nM (3 of 3 replicates; controls 1 of 9)
* EKDSLRYVYAN / GKNNRPS / SSRDSSGFGVF = 21 µM (3 of 3 replicates; controls 2 of 9)
* EGDSLRYYSAN / GKNNRPS / SSRDSSGFTVD = 210 nM (1 of 3 replicates; controls 0 of 9)
* EGDSLRYYYAN / GKNNRPS / SSGDSSGFNVF = 190 nM (3 of 3 replicates; controls 7 of 9)
* EGDSLRYYYAN / GYNNRPS / SSRDSSGFTWF = nd (0 of 3 replicates; controls 1 of 9)
* EGLSLRYYYAN / GKNNRPS / SSRRSSGFNVF = 560 nM (3 of 3 replicates; controls 7 of 9)
* EGRSLRYYYAN / GKNWRPS / SSRDSSGFAVF = 19 µM (3 of 3 replicates; controls 2 of 9)
* EGDSLRYYYAN / GKNNRPS / SSRDFPGFWVF = nd (0 of 3 replicates; controls 0 of 9)
* WGDSLRYYYAN / GKNNRPP / SSRDSSGFGVF = 66 µM (2 of 3 replicates; controls 6 of 9)
* EGDMLRYYYAN / GKNNRPS / SIRDSSGFMVF = nd (0 of 3 replicates; controls 4 of 9)
* EGDSLRYYYAN / GKNNRPS / SSRDSSMCFVF = 350 nM (1 of 3 replicates; controls 1 of 9)
* EGDSGRYYYAN / GKNNRPS / SSRESSGFSVF = 19 µM (3 of 3 replicates; controls 7 of 9)
* EGDSLSYYYAN / GKNNRPS / SSMDSSGFDVF = 8.2 µM (2 of 3 replicates; controls 3 of 9)
* EGKSLRYNYAN / GKNNRPS / SSRDSSGFCVF = 37 nM (3 of 3 replicates; controls 2 of 9)
* ERDSLRYYYAN / GKNNRPS / SSRDSEGFVVF = 13 µM (1 of 3 replicates; controls 3 of 9)
* EGDSLRLYYAN / GKNNRPS / CSRDSSGFGVF = nd (0 of 3 replicates; controls 1 of 9)
* EGDSLMYYYAN / GKNNRPS / SSRDSSGFAVF = 700 nM (3 of 3 replicates; controls 4 of 9)
* EGDSLRYVYAN / GKNNRPS / SSRKSSGFKVF = 1.0 µM (3 of 3 replicates; controls 0 of 9)
* ECDSLRYYYAN / GKNNRPS / SSRDSSGFIDF = 860 nM (3 of 3 replicates; controls 2 of 9)
* EGDSLRYYYAN / GKNFRPD / SSRDSSGFAVF = 680 nM (3 of 3 replicates; controls 1 of 9)
* EGDSLRHYYAN / GKNNRPS / SWRDSSGFLVF = 5.8 µM (1 of 3 replicates; controls 1 of 9)

Extract of 3 entries:

* WGDSLRYYYAN / GKNNRPP / SSRDSSGFGVF = 66 µM (2 of 3 replicates; controls 6 of 9)
* EGDSLRHYYAN / GKNNRPS / SWRDSSGFLVF = 5.8 µM (1 of 3 replicates; controls 1 of 9)
* EGDSLRYYYAN / GKNFRPD / SSRDSSGFAVF = 680 nM (3 of 3 replicates; controls 1 of 9)

Parent in this assay: reference entry 200 nM, copy in this library 180 nM.